Drawing on published antibiotic growth screens (doi:10.1038/s41589-023-01349-8), this text covers relative growth for 51 molecules.

Some of the results follow.

This experiment deals with A. baumannii ATCC 17978. Description: relative growth (fraction of control); higher = less inhibition. The conditions noted are these: 50 µM.
Take `N=C(N)Nc1nc(=O)c2ccccc2s1`: the relative growth was 0.945.
`CC(C)(C)[S@@](=O)N1Cc2cc(C(=O)N[C@@H]3CCN(Cc4ccccc4)C3)nc(-c3cccc(-c4cccnc4)c3)c2[C@H]1CCO` registered a relative growth of 0.829.
The result for `NC(=O)c1ncn(C2O[C@H](CO)[C@@H](O)[C@H]2O)c1N` (stereo partly specified) reads 0.943; that for `O=C(C[C@H]1C=C[C@H](NC(=O)Nc2ccc3c(c2)OCO3)[C@@H](CO)O1)NCCCN1CCOCC1`, 1.22; that for `C[C@H](O)C#Cc1ccc2c(c1)O[C@H](CN(C)C(=O)Nc1ccccc1)[C@@H](C)CN([C@H](C)CO)S2(=O)=O`, 0.906.
Molecule `CC(=O)c1ccc2c(c1)N(CCCN1CCN(CCO)CC1)c1ccccc1S2.O=C(O)/C=C\C(=O)O` had a relative growth of 0.929.
Under `CN(C)CCN(Cc1ccccc1)c1ccccn1.O=C(O)CC(O)(CC(=O)O)C(=O)O` stands 1.15.
Under `C[C@H]1CN([C@@H](C)CO)S(=O)(=O)c2ccc(C#CC3CC3)cc2O[C@@H]1CN(C)Cc1ccccc1F` stands 1.51.
Under `CCNC(=O)C[C@@H]1CC[C@H]2[C@@H](COC[C@@H](O)CN2C(=O)Nc2c(C)noc2C)O1` stands 0.881.
Turning to `COC(=O)C(N)CS.Cl` (stereo unspecified), the relative growth was 0.984.
Under `CC(=O)NCCOCCOCC(=O)N[C@@H]1C/C=C/CCC(=O)N[C@H](c2ccccc2)COC1=O` stands 1.
The result for `CC(C)NCC(O)COc1ccc(CC(N)=O)cc1` (stereo unspecified) reads 0.977.
Under `O=C(C[C@@H]1CC[C@H]2[C@@H](COC[C@H](O)CN2C(=O)Nc2ccc(Cl)c(Cl)c2)O1)NCc1ccncc1` stands 1.1.
Consider `COc1ccc([C@@H]2CC(=O)c3c(O)cc(O[C@@H]4O[C@H](CO[C@H]5O[C@@H](C)[C@H](O)[C@@H](O)[C@H]5O)[C@@H](O)[C@H](O)[C@H]4O)cc3O2)cc1O`, for which the relative growth turned out to be 1.1.
Under `C=CC[C@]1(C(=O)NCCN2CCOCC2)COC(c2ccc(OCCCO)cc2)=N1` stands 1.03.
`O=C(NCCO)C(=O)NCc1ccco1` showed a relative growth of 1.04.
For the molecule `CSc1sc(C)cc1/C=N/O`, the relative growth came out at 1.01.
The result for `CCS(=O)(=O)NCC[C@H]1CC[C@H](NC(=O)Cc2ccccn2)[C@H](CO)O1` reads 1.22.
Under `Cc1cc(C(=O)NCc2cccn2C)nn1C` stands 1.02; under `C[C@@H]1CN([C@H](C)CO)S(=O)(=O)c2ccc(C3=CCCC3)cc2O[C@@H]1CN(C)S(=O)(=O)c1cn(C)cn1`, 0.807.
The result for `O=C(CN1CCOCC1)N[C@@H]1CC[C@H](CCn2cc(C3CCCC3)nn2)O[C@@H]1CO` reads 0.99; that for `O=C(CN1CCOCC1)N[C@H]1CC[C@H](CCn2cc(C3CCCC3)nn2)O[C@@H]1CO`, 0.959; that for `O=C(C[C@@H]1CC[C@H]2[C@@H](COC[C@@H](O)CN2S(=O)(=O)c2ccccc2Cl)O1)NCc1ccccc1Cl`, 0.914.
`COC(=O)[C@@H](NC(=O)c1cc(C)on1)C(C)C` had a relative growth of 0.982.
With `CC1(C)S[C@@H]2[C@H](NC(=O)COc3ccccc3)C(=O)N2[C@H]1C(=O)[O-].[K+]`, the relative growth turned out to be 0.244.
The result for `NC(Cn1ccc(=O)c(O)c1)C(=O)O` (stereo unspecified) reads 1.2; that for `CN1C2CCC1CC(OC(c1ccccc1)c1ccccc1)C2.CS(=O)(=O)O` (stereo unspecified), 0.922.
`NNC(=O)c1nnn(-c2nonc2N)c1CN1CCCCC1` gave a relative growth of 1.09.
Under `Cn1cc[nH]c1=S` stands 0.916; under `CC(=O)N(CC(O)CO)c1c(I)c(C(=O)NCCO)c(I)c(C(=O)NCC(O)CO)c1I` (stereo unspecified), 1.08.
The result for `Cc1ccc(C(=O)Nc2ccc(S(=O)(=O)[O-])c3cc(S(=O)(=O)[O-])cc(S(=O)(=O)[O-])c23)cc1NC(=O)c1cccc(NC(=O)Nc2cccc(C(=O)Nc3cc(C(=O)Nc4ccc(S(=O)(=O)[O-])c5cc(S(=O)(=O)[O-])cc(S(=O)(=O)[O-])c45)ccc3C)c2)c1.[Na+].[Na+].[Na+].[Na+].[Na+].[Na+]` reads 1.3; that for `Cc1ccc([C@@H]2O[C@H](CO)[C@@H](O)[C@H](O)[C@H]2O)cc1Cc1ccc(-c2ccc(F)cc2)s1`, 0.844.
Turning to `O=C(CN1CCOCC1)NCC[C@@H]1CC[C@H](NC(=O)Nc2ccccc2)[C@H](CO)O1`, the relative growth is 1.05.
Under `CC(C)(C)c1csc(-c2ccc(OC(F)(F)F)cc2)n1` stands 1.13; under `O=S1(=O)C[C@H](NC[C@H]2C[C@@H]3C=C[C@H]2C3)[C@@H](O)C1`, 0.983.
Under `C=CC(=O)NC(C)(C)CCN1CCOCC1` stands 1.13.
Turning to `Cc1cc(N2C(=O)CCC2=O)no1`, the relative growth was 0.833.
Under `COc1ccccc1-c1cc(=O)c2c(OC)cccc2o1` stands 1.22; under `CCCNC(=O)N1C[C@H](O)COC[C@H]2O[C@@H](CC(=O)N3CCN(C)CC3)CC[C@@H]21`, 0.998.
The result for `CC(C)CN1C(=O)[C@@]2(c3ccc([N+](=O)[O-])cc3)CC(=O)N(CC3C4CC5CC(C4)CC3C5)[C@@H]2c2ccc(CO)cc21` (stereo partly specified) reads 0.961; that for `Cc1ccccc1CCCCN`, 0.982; that for `O=C(C[C@H]1C[C@@H]2c3cc(NC(=O)C4CCOCC4)ccc3O[C@@H]2[C@H](CO)O1)NCc1ccc2c(c1)OCO2`, 1.04.
In turn, `CC(C)c1ccc(N2C=Nc3ccc(C(C)C)cc3C2)cc1` displayed a relative growth of 0.751.
`COC(=O)c1c(CC[C@@H](CO)NC(=O)N[C@@H](Cc2ccccc2)Cn2cc(-c3ccccn3)nn2)oc(C(=O)N2CCOCC2)c1C(=O)OC`: the relative growth is 0.926.
The result for `NC(=O)NCC#Cc1ccc2c(c1)[C@]1(C(=O)N2)[C@H](C(=O)N2CCN(c3ncccn3)CC2)[C@H]2C(=O)O[C@H](c3ccccc3)[C@H](c3ccccc3)N2[C@@H]1c1ccccc1OCCO` reads 1.35; that for `CN1CCCN=C1COC(=O)C(O)(c1ccccc1)C1CCCCC1.Cl` (stereo unspecified), 0.967.
The result for `C[C@@H]1O[C@@H](O[C@@H]2[C@@H](O)[C@H](C)O[C@@H](OC[C@H]3O[C@@H](Oc4c(-c5ccc(O)c(O)c5)oc5cc(O)cc(O)c5c4=O)[C@@H](O)[C@@H](O)[C@@H]3O)[C@@H]2O)[C@H](O)[C@H](O)[C@H]1O` reads 1.11; that for `Cl.Cl.N=C(NCCCCCCNC(=N)NC(=N)Nc1ccc(Cl)cc1)NC(=N)Nc1ccc(Cl)cc1`, 0.157; that for `COCC#Cc1ccc2c(c1)O[C@@H](CN(C)Cc1ccc3c(c1)OCO3)[C@@H](C)CN([C@H](C)CO)S2(=O)=O`, 0.773.
Under `CCN[C@H]1C[C@H](C)S(=O)(=O)c2sc(S(N)(=O)=O)cc21.Cl` stands 0.914; under `Cc1cccc(S(=O)(=O)N2C[C@H](O)COC[C@H]3O[C@H](CC(=O)N4CCN(C)CC4)CC[C@@H]32)c1`, 0.869.
